Experimental data taken from PubChem BioAssay AID441 (NMMLSC, 2006).
The entries are a selection whose mix differs from that of the whole data set. Some results for these compounds are left out of this collection, so the calls shown say nothing about other tests. The source made the active and inactive calls. Rule as the data show it: active = inhibition above about 30%; inconclusive = no clear call, values can overlap the other calls; inactive = below that.

Amino acid sequences for entries named in this document (tags omitted).
UniProt P25090, whole entry: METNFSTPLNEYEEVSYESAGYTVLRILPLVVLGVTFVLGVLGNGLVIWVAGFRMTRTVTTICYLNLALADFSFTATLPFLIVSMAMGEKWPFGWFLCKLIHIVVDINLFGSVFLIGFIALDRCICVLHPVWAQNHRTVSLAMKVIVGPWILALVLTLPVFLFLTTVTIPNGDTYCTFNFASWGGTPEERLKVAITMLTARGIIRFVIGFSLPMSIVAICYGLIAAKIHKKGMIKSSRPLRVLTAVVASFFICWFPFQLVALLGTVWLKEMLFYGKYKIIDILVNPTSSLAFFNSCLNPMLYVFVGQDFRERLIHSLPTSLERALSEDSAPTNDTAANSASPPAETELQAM

Target: N-formyl peptide receptor 2 (Homo sapiens) (UniProt P25090)
Experiment: small molecules displacing FPRL1 fluorescent ligand – cell-based, FPR counter-screen, flow cytometry, primary screen (AID 441);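 also: 0% = buffer alone and 100% = receptor blocker peptide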
Conditions: FPRL1-expressing cells, fluorescent ligand binding inhibition, stronger effect = higher value, concentration not given here

Structure (SMILES) | inhibition
O=C(OC1CN2CCC1CC2)C(CO)(c1ccccc1)c1ccccc1 (stereo unspecified) | inactive: -0.2%
